# According to patent US10751346B2, “Pyrrolobenzodiazepine—anti-PSMA antibody conjugates” (priority 2012, dated 2020):
# Test system: LNCaP cells
# Test: In vitro cytotoxicity of ADCs, Alamar Blue assay, LNCaP cells
# Format: cell-based, human
# Conditions: LNCaP cells (PSMA +ve), 4 days incubation, average of three replicate experiments
# Method: LNCaP and PC3 cells were a generous gift from Professor John Hartley (UCL) Cell culture medium was RPMI 1640 supplemented with L-Glutamine and 10% FBS. Cells were grown at 37° C., 5% CO2, in a humidified incubator.
# The concentration and viability of cultures of suspended cells (at up to 1×10^6/ml) were determined by mixing 1:1 with Trypan blue and counting clear (live)/blue (dead) cells with a haemocytometer. The cell suspension was diluted to the required seeding density (generally 10^5/ml) and dispensed into 96-well flat bottomed plates. For Alamar blue assay, 100 μl/well was dispensed in black-well plates. For MTS assay, 50 μl/well was dispensed in clear-well plates. […] After incubation for 4 days, cell viability was measured by either Alamar blue or MTS assay.
# AlamarBlue® (Invitrogen, catalogue number DAL1025) was dispensed (20 μl per well) into each well and incubated for 4 hours at 37° C. in the CO2-gassed incubator. Well fluorescence was measured at excitation 570 nm, emission 585 nm. Cell survival (%) was calculated from the ratio of mean fluorescence in the 4 ADC-treated wells compared to the mean fluorescence in the 4 control wells (100%).
# MTS (Promega, catalogue number G5421) was dispensed (20 μl per well) into each well and incubated for 4 hours at 37° C. in the CO2-gassed incubator. Absorbance was measured at 490 nm. […]
row,Substance,EC50 [ng/mL]
1,deJ591-D,4.897
2,deJ591-E,6.856
